The target in assay [1] is binary complex of biotinylated PPP1R15A^533-624 and PP1 (UniProt O75807).
The target of assay [2] is binary complex of biotinylated PPP1R15A^(533-624)R578A and PP1 (UniProt O75807).

The substance “G-actin (from UniProt P68135 1-377) (natural protein)” gave an EC50 of G-actin for the initial velocity of eIF2α-P dephosphorylation (PPP1R15A^533-624 50 nM, PP1 0.625 nM) in assay [1] of 13 nM. The substance further yielded an EC50 of G-actin for eIF2α-P dephosphorylation with PPP1R15A^(533-624)R578A [100 nM] in assay [2] of 20 nM.
